Target: His-tagged full-length G3BP1 F33W (human), Q13283
Assay: pull-down
Conditions: remark: other sources report otherwise

reduction of copurification relative to WT: 98%
B1: cytoplasmic activating/proliferation associated protein 1 (Caprin1), endogenous, Q14444 1-709 (natural protein)
chain: MPSATSHSGSGSKSSGPPPPSGSSGSEAAAGAGAAAPASQHPATGTGAVQTEAMKQILGVIDKKLRNLEKKKGKLDDYQERMNKGERLNQDQLDAVSKYQEVTNNLEFAKELQRSFMALSQDIQKTIKKTARREQLMREEAEQKRLKTVLELQYVLDKLGDDEVRTDLKQGLNGVPILSEEELSLLDEFYKLVDPERDMSLRLNEQYEHASIHLWDLLEGKEKPVCGTTYKVLKEIVERVFQSNYFDSTHNHQNGLCEEEEAASAPAVEDQVPEAEPEPAEEYTEQSEVESTEYVNRQFMAETQFTSGEKEQVDEWTVETVEVVNSLQQQPQAASPSVPEPHSLTPVAQADPLVRRQRVQDLMAQMQGPYNFIQDSMLDFENQTLDPAIVSAQPMNPTQNMDMPQLVCPPVHSESRLAQPNQVPVQPEATQVPLVSSTSEGYTASQPLYQPSHATEQRPQKEPIDQIQATISLNTDQTTASSSLPAASQPQVFQAGTSKPLHSSGINVNAAPFQSMQTVFNMNAPVPPVNEPETLKQQNQYQASYNQSFSSQPHQVEQTELQQEQLQTVVGTYHGSPDQSHQVTGNHQQPPQQNTGFPRSNQPYYNSRGVSRGGSRGARGLMNGYRGPANGFRGGYDGYRPSFSNTPNSGYTQSQFSAPRDYSGYQRDGYQQNFKRGSGQSGPRGAPRGRGGPPRPNRGMPQMNTQQVN
